The values below come from article PMC7123434, “Development of High-Throughput Fluorescent-Based Screens to Accelerate Discovery of P2X Inhibitors from Animal Venoms” (Journal of Natural Products, 2019).

For experiment [1], the target named is T1, hP2X4 (Homo sapiens, UniProt Q99571).
T1 construct: expressed in transfected cells
T1 sequence (Q99571 1-388): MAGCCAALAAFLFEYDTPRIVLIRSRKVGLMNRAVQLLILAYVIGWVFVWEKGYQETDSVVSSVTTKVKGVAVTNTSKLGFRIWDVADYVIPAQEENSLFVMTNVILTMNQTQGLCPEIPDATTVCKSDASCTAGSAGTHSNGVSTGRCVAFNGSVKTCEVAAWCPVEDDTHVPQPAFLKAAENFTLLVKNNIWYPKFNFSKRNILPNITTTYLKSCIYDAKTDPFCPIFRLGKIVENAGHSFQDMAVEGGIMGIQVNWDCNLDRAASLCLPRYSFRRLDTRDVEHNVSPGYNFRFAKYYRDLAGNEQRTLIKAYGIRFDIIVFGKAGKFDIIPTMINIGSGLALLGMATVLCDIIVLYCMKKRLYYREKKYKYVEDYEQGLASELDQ
The experiment in a line: Fura-2 AM [Ca2+]i assay on 1321N1-hP2X4 cells. Type of experiment: cell-based. The settings on record: Fura-2 AM HTS assay.

In experiment [2] the target is T1, hP2X4. The experiment in a line: YOPRO-1 dye uptake assay on HEK293-hP2X4 cells. The conditions noted are these: HEK-hP2X4; YOPRO-1 HTS assay. Type of experiment: cell-based. The protocol:
This method was adapted and further optimized from Patrice et al.[50] One day prior to measurements, HEK293-hP2X4 and HEK293-hP2X7 cells were plated on poly-D-lysine-coated 96-well plates at 2 × 10^4 cells/well. After 24 h, the culture media was aspirated, and 80 μL of YOPRO-1 assay buffer (145 mM NaCl, 5 mM KCl, 0.1 mM CaCl2, 13 mM D-glucose, 10 mM HEPES; pH 7.35) with 2 μM YOPRO-1 was applied. […] The injection volume was 10 μL with a 150 μL pipet height and rate of 4 (∼62 μL/s). The run time was 300 s with a 3.9 s interval, 6 reads/well, and 77 reads in total. Measurement parameters were as follows: bottom reading, excitation wavelength (490 nm), emission wavelength (520 nm).

Structures are written as SMILES.

In the case of `Cc1ccc(S(=O)(=O)N2c3ccccc3Oc3ccccc32)cc1` [PSB12062], the IC50 in experiment [1] stood at 0.42 µM; in experiment [2], 0.76 µM.

As usually defined, the IC50 is the concentration needed to halve the response being measured. A lower IC50 goes with higher potency.
